Results on one compound are retold here after patent US20050159333A1, “Methods of modulating smooth muscle contractility” (priority 2002, published 2005).

As usually defined, the EC50 is the midpoint of the concentration-response curve. A higher EC50 goes with weaker potency.

In the assay the test system is isolated male rat urinary bladder.

In turn, `CSCC[C@H](NC(=O)[C@H](CC(C)C)NC(=O)CNC(=O)[C@@H](NC(=O)[C@H](Cc1ccccc1)NC(=O)[C@H](CO)NC(=O)[C@H](CC(=O)O)NC(=O)[C@@H](NC(=O)[C@H](CCCCN)NC(=O)[C@@H](N)Cc1c[nH]cn1)[C@@H](C)O)C(C)C)C(N)=O` [NKA, Neurokinin A] displayed an EC50 of 6.5 ± 3.9 nM.
